The entries are a selection whose mix differs from that of the whole data set. Results filed as inconclusive are left out. The source made the active and inactive calls.

By UniProt entry, the sequences of proteins in these tests, tags left out. Where a name states a change or a piece, a line headed by the entry shows the natural chain unless it says otherwise.
UniProt O00391: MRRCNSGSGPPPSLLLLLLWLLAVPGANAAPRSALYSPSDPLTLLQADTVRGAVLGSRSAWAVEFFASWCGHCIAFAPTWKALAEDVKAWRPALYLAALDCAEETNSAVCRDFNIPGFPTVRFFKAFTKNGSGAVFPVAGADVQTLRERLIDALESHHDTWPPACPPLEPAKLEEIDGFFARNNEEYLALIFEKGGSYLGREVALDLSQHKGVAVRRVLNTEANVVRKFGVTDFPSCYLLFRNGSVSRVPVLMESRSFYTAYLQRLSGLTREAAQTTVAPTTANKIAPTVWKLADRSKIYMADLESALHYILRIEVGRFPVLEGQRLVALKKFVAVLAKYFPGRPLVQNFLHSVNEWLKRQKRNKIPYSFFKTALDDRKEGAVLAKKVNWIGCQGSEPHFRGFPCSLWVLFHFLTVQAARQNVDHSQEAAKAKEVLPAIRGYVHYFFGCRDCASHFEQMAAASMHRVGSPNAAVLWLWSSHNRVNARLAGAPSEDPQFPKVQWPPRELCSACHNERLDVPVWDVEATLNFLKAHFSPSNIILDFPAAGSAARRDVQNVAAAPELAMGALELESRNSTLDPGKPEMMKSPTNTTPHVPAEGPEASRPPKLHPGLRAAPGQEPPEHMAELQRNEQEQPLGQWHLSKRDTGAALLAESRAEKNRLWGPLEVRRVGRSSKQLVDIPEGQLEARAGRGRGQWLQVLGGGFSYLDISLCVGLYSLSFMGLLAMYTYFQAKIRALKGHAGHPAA

This assay deals with Sulfhydryl oxidase 1 (Homo sapiens) (UniProt O00391). The assay can be described thus: QSOX1 enzyme inhibitors, primary screen, biochemical, HyperBlu H2O2 luminescence, HTS (AID 1347420). Further: values above 100% were filed as inconclusive. The settings on record: recombinant QSOX1, HyperBlu H2O2 luminescence; at 12.5 µM; active compounds read high; active = any value above zero.
Regarding `CN(C(=O)Cc1ccc(Cl)c(Cl)c1)[C@H]1CCCC[C@@H]1N1CCCC1`, the inhibition was inactive: -1.9%.

For `CN(C(=O)Cc1ccc(Cl)c(Cl)c1)[C@@H]1CCCC[C@@H]1N1CCCC1`, the inhibition is active: 13.3%.

As to `CN(CCCl)Cc1cc(Cl)c(NC2=NCCN2)c(Cl)c1`, the inhibition is active: 10%.

Regarding `CN(C(=O)Cc1ccccc1)[C@@H]1CC[C@]2(CCCO2)C[C@H]1N1CCCC1`, the inhibition was active: 31.8%.

Turning to `CN(C(=O)Cc1ccc(Cl)c(Cl)c1)[C@@H]1CC[C@]2(CCCO2)C[C@H]1N1CCCC1`, the inhibition was active: 8.7%.

The values are drawn from PubChem BioAssay AID1347420 (Sanford-Burnham Center for Chemical Genomics, 2020).
